From patent US20150320696A1, “COMBINATION THERAPY FOR CANCER” (priority 2012, published 2015)

System: DLD-1 colorectal cancer cell line xenograft
Experiment: Xenograft model of nude mice bearing DLD-1 colorectal cancer cell line
Type: in vivo, athymic nude mice
Details: Example 6; Erbitux 10 mg/Kg body weight i.p. every second day, after two weeks of treatment; FIG. 6
Description: Male athymic nude mice, 6-8 weeks old, (Harlan Laboratories) were housed in sterile cages and handled with aseptic precautions. The mice were fed ad libitum. The therapeutic anti-cancer activity of terpinen-4-ol alone or in combination with additional anti-cancer agents was examined as follows: exponentially growing DLD1 cancer cells were harvested and resuspended at a final concentration of 5×10^6 cells per 0.2 ml PBS per injection. The cells were injected subcutaneously at two sites on the backs of the mice. When tumors were palpable, mice were randomly divided into the treatment groups as described hereinbelow. […]
Mice were treated every second day. The mice were weighed and tumor volume was measured every three days (with a caliper) starting from the onset of treatment with terpinen-4-ol/control. Tumor volume was calculated as 4/3π·a·b^2. At the end of the experiment, the mice were sacrificed by cervical dislocation after anesthesia and the tumors were excised and measured for volume and weight. […]
The treatment groups were as follows (4 mice per group): Control—1% DMSO in PBS; Erb—10 mg/Kg body weight of Erbitux®; 1A—50 μl 0.1% terpinen-4-ol dissolved in 1% DMSO in PBS; and Erb+1A—combination of Erbitux at 10 mg/Kg body weight and 0.1% terpinen-4-ol dissolved in 1% DMSO in PBS. […] Mice were weighed and tumor volume was measured with a caliper before each additional treatment. […]

Erbitux®: humanized monoclonal antibody that binds the epidermal growth factor receptor (EGFR) [reference compound]
reduction of tumor size compared to control: about 23.5%
